Assay results as given in US20240376090A1, “ISOXAZOLE DERIVATIVES AS MODULATORS OF THE 5-HT2A SEROTONIN RECEPTOR USEFUL FOR THE TREATMENT OF DISORDERED RELATED THERETO” (Arena Pharmaceuticals, Inc., priority 2020, published 2024).

Sequences of proteins named here, by UniProt entry; tags and fusion partners are left off.
UniProt P28223, whole entry: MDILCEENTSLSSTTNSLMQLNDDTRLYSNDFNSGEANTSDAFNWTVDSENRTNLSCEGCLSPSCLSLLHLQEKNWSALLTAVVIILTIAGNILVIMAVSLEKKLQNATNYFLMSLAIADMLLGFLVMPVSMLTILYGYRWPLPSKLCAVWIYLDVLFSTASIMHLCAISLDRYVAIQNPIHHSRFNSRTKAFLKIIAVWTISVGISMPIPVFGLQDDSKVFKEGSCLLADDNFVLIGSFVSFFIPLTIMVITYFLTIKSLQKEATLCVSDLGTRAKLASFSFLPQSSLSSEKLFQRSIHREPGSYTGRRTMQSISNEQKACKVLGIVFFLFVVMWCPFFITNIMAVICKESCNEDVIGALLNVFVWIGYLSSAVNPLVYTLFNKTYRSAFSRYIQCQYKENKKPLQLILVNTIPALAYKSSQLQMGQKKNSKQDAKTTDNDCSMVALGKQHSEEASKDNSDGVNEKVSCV

Biological target: 5-HT2A receptor (Homo sapiens (Human), UniProt P28223)
Assay: Radioligand binding assay ([3H]5-HT competition), 5-HT2A
Conditions: [3H]5-HT radioligand, membranes of HEK293 cells expressing recombinant 5-HT2A; Ki from IC50 by Cheng-Prusoff; read-out: 5-HT2A serotonin binding Ki value
Experimental: Competition binding experiments consisted of addition of 5 μL of serially diluted test compound, 50 μL of radioligand stock diluted in Assay Buffer (20 mM HEPES, pH 7.4, 10 mM MgCl2), and 145 μL of diluted membrane expressing the receptor of interest to 96-well microtiter plates, which were then incubated for one hour at room temperature. Assay incubations were terminated by rapid filtration through Perkin Elmer GF/C filtration plates under vacuum pressure using a 96-well Packard filtration apparatus, followed by washing the filter plates several times with ice cold Assay Buffer. Plates were then dried at 45° C. for a minimum of four hours. Finally, 25 μL of BetaScint scintillation cocktail was added to each well and the plates were counted in a Packard TopCount scintillation counter. In each competition study, test compounds were assayed at 10 concentrations with three replicates at each test concentration. Dose-response curves were constructed to determine IC50 values and these were converted to corresponding Ki values using the Cheng-Prusoff equation.

SMILES | Ki [nM]
Cc1noc(C)c1-c1cc(NC(=O)C2CC2)ccc1OCCN1CCN2C(=O)OCC2C1 (centres unmarked) [Compound 136, N-[3-(3,5-dimethylisoxazol-4-yl)-4-[2-(3-oxo-5,6,8,8a-tetrahydro-1H-oxazolo[3,4-a]pyrazin-7-yl)ethoxy]phenyl]cyclopropanecarboxamide] | 84.1
Cc1noc(C)c1-c1cc(NC(=O)C2CC2)ccc1OCCN1CCC1 [Compound 154, N-[4-[2-(azetidin-1-yl)ethoxy]-3-(3,5-dimethylisoxazol-4-yl)phenyl]cyclopropanecarboxamide] | 8.12
